## Antibody variant affinities, Ab-95 light chain, assay 2

All variants were tested on one target, the spike HR2 peptide PDVDLGDISGINAS (SARS-CoV-2).

Parent: Ab-95, a human scFv built as VH, the linker GGGGSGGGGSGGGGS, VL. Only the CDRs of the light chain vary.
VH: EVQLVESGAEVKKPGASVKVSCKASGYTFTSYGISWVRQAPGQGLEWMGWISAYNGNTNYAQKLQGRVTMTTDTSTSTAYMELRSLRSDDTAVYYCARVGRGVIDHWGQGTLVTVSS
VL: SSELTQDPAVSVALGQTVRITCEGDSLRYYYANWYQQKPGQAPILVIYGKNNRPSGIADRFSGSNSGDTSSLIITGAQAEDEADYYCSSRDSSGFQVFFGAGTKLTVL

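The starting antibody came from a phage panning campaign against this peptide. Variants in AAYL52 differ from the parent at up to three CDR positions; double and triple changes were sampled at random. In AlphaSeq, yeast of one mating type display the scFv and yeast of the other type display the target. Pairs that bind mate more often; barcode pairs of the diploids are counted by sequencing. Each replicate has its own calibration line, from reference interactions of the BCL2 family. There are three technical replicates.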

Each variant is given by its three light chain CDRs, as the data file delimits them; those of the parent are EGDSLRYYYAN, GKNNRPS, SSRDSSGFQVF. The Kd shown is the geometric mean over detected replicates; a lower Kd is a better binder. "nd" means that the variant was in the library but no mating with the target was seen in any replicate; the authors take this as a sign of poor binding, and no number exists. Order: sorted from the lowest average up, undetected variants last.

| CDR-L1 | CDR-L2 | CDR-L3 | Kd | replicates with signal |
|---|---|---|---|---|
| EGDSLRTQYAN | GKNNRPS | SSRDSSGFQYF | 8.0 nM | 3 of 3 |
| EGDSLRYQYAN | GKNNRPS | SSRDTSIFQVF | 11 nM | 3 of 3 |
| EGDSLRYEYAN | GKNQRPT | SSRDSSGFQVF | 11 nM | 3 of 3 |
| EGDSLRLAYAN | GKNNRPS | SSRDWSGFQVF | 45 nM | 3 of 3 |
| IGDSLRLYYAN | GKNNRPS | SSRDSSGFQDF | 72 nM | 3 of 3 |
| EGKSLRYYYAN | GKNNRPS | SSRDVSGFTVF | 74 nM | 3 of 3 |
| EGGSLRYQYAN | GKMNRPS | SSRDSSGFQVF | 75 nM | 3 of 3 |
| EGDSLRYYYAN | GKNNRPS | SSRDSARFQCF | 110 nM | 3 of 3 |
| EGDSLAYYYAN | GKNNRGS | SSRDSSGFTVF | 110 nM | 3 of 3 |
| EGDSFRYYKAN | GLNNRPS | SSRDSSGFQVF | 110 nM | 3 of 3 |
| EGDSNRYPYAN | GKNNRGS | SSRDSSGFQVF | 170 nM | 3 of 3 |
| EGDSLRYYYAN | GKNNRGP | SSRDSSGFQSF | 170 nM | 3 of 3 |
| GGDSLRYYYAN | GKNSRPS | SSRDSSGHQVF | 400 nM | 3 of 3 |
| EGDSLRYYYAN | GKNNRNS | SSRGSSGFQVF | 420 nM | 3 of 3 |
| EGDSLRYYRAN | GKNNRQS | SSRDSSGFQVF | 440 nM | 3 of 3 |
| EGDSLRYYYAN | GKNNRES | MSRSSSGFQVF | 490 nM | 3 of 3 |
| EGDSLRYYYAN | GKNLRFS | SSRASSGFQVF | 610 nM | 2 of 3 |
| EGDSLRYYYAN | GKNNRDY | SSRDSSGTQVF | 620 nM | 3 of 3 |
| EGDSRRYYGAN | GKNNRPL | SSRDSSGFQVF | 640 nM | 3 of 3 |
| EGDSLRYYYAN | GKNNRPM | SSRDHSGQQVF | 730 nM | 3 of 3 |
| EGDSLRYYYAN | GKNNRPD | SSRDSSGFRAF | 750 nM | 3 of 3 |
| EGDSLRTYYAN | GKNNRSS | SSRDYSGFQVF | 1.0 µM | 3 of 3 |
| EHDSLRYYYAN | GFNNRPS | SSRDSSKFQVF | 1.1 µM | 1 of 3 |
| EGDWLKNYYAN | GKNNRPS | SSRDSSGFQVF | 1.1 µM | 3 of 3 |
| EGDPLRYYYAN | GKNNRPQ | SSRDSSGFQNF | 1.8 µM | 1 of 3 |
| EGDSLRYYYLN | FKNNRPS | SSRDASGFQVF | 2.5 µM | 1 of 3 |
| EGYSLGYYYAN | FKNNRPS | SSRDSSGFQVF | 3.2 µM | 2 of 3 |
| EGDSLRYYYAN | GTNNRPT | SSRDSMGFQVF | 3.8 µM | 1 of 3 |
| EGDSLIYYYAQ | GKNNRPS | SSRDSSGFQVF | 3.9 µM | 3 of 3 |
| EGDSLRYYYAN | GKNNSPS | ISRDSRGFQVF | 3.9 µM | 3 of 3 |
| EGDSLRYQYAN | GKNNRPS | SSRDSLGFIVF | 4.0 µM | 3 of 3 |
| EGDSLRYYYAN | GKNNRPS | SSRCSSDFKVF | 4.8 µM | 3 of 3 |
| EGDSYRAYYAN | GKMNRPS | SSRDSSGFQVF | 5.3 µM | 1 of 3 |
| EGDSLRPYYAN | NKNNRPS | SNRDSSGFQVF | 5.3 µM | 2 of 3 |
| EGDSLRYYYAN | GRNSRPS | SSRDSSDFQVF | 6.5 µM | 1 of 3 |
| EGDSLRYYYAN | GWNNAPS | SSRDSSGFPVF | 6.6 µM | 2 of 3 |
| CPDSLRYYYAN | GKVNRPS | SSRDSSGFQVF | 8.1 µM | 1 of 3 |
| EGDSLRYYYEN | GKDNRPS | SSTDSSGFQVF | 8.6 µM | 2 of 3 |
| EGDSLRYYYAN | GKNNRPS | ISNDSSWFQVF | 9.9 µM | 1 of 3 |
| EGTSLRYRYAN | CKNNRPS | SSRDSSGFQVF | 13 µM | 1 of 3 |
| EGDSLRYYYYN | IKNNRPS | SSRDSLGFQVF | 15 µM | 1 of 3 |
| EQDSLIKYYAN | GKNNRPS | SSRDSSGFQVF | 21 µM | 1 of 3 |
| ELDSLRYYYAN | FKNNRFS | SSRDSSGFQVF | 21 µM | 2 of 3 |
| EGSSLRYYYAN | GKNKRPS | SSRNSSGFQVF | 22 µM | 1 of 3 |
| EGDSLRVYYAD | GKNNRPS | DSRDSSGFQVF | 26 µM | 2 of 3 |
| EEDSLRYYYAN | GKNNRPS | RSRDSSGFDVF | 26 µM | 2 of 3 |
| EGDSLRYYYAN | THNNRPS | SSRDSSGFQSF | 26 µM | 2 of 3 |
| EEVSLRYYYAN | GKNNRPS | SSRDSSGFWVF | 33 µM | 2 of 3 |
| EGDSLRYYYAN | GKNNLPT | SSRDSSGFQWF | 63 µM | 2 of 3 |
| EGDSLRPYYAN | GKNNRPS | SSGDSSGFVVF | 92 µM | 2 of 3 |
| EWDSLRYYYAN | GKNNRQS | SSRDSSYFQVF | 120 µM | 2 of 3 |
| EGDSLRYYLAN | GKNPRPS | SSRDSSGFQVK | 260 µM | 1 of 3 |
| EGDSLRYRYAN | GKQNRPS | SSRESSGFQVF | nd | 0 of 3 |
| EGDSLRYYYAN | GFNNRPS | SSRDSSIFPVF | nd | 0 of 3 |
| EGDSLRYFYAN | GKKNRPS | SSRDSSGFQVG | nd | 0 of 3 |

7 of these entries, quoted again:

CDR-L1	CDR-L2	CDR-L3	Kd	replicates with signal
EGTSLRYRYAN	CKNNRPS	SSRDSSGFQVF	13 µM	1 of 3
EWDSLRYYYAN	GKNNRQS	SSRDSSYFQVF	120 µM	2 of 3
EGDSLRYYYAN	GKNNRDY	SSRDSSGTQVF	620 nM	3 of 3
EGDSLRYYYAN	GKNLRFS	SSRASSGFQVF	610 nM	2 of 3
EGDSLRYYYAN	GRNSRPS	SSRDSSDFQVF	6.5 µM	1 of 3
EGDSLRYYYYN	IKNNRPS	SSRDSLGFQVF	15 µM	1 of 3
EGDSLRYQYAN	GKNNRPS	SSRDTSIFQVF	11 nM	3 of 3

Parent in this assay: reference entry 200 nM, copy in this library 180 nM. Nonspecific signal, from three strains lacking the peptide, appeared in 28% of pairings of library AAYL52, centred on 8.2 µM (5% of these signals below 800 nM); values are not corrected for it.

Data: MIT Lincoln Laboratory AlphaSeq set, Engelhart et al. 2022, doi:10.1038/s41597-022-01779-4, as distributed in FLAb.